The text below walks through data of publication PMC3049920 (Journal of immunology (Baltimore, Md. : 1950), 2010).

This experiment relates to B16 melanoma tumors. The experiment in a line: B16 melanoma tumors in C57BL/6 mice. The following applies: bid. In kind it is in vivo, mouse.

With interleukin-2 [IL-2], the “effect on B16 tumor growth” value (1 × 10^5 IU) is “little effect”. The “growth inhibition of B16 tumors” value (C57BL/6 mice, 3 × 10^5 IU, 5d/wk, ip) is ~ 61%.
